Experimental data reported in ChEMBL document CHEMBL2396652 (Bioorg Med Chem Lett, 2013).

Key:
Homo sapiens [1] = species on record: Homo sapiens; test: Selectivity ratio of Ki for delta opioid receptor (unknown origin) to Ki for kappa opioid receptor (unknown origin)
Homo sapiens [2] = species on record: Homo sapiens; test: Selectivity ratio of Ki for mu opioid receptor (unknown origin) to Ki for kappa opioid receptor (unknown origin)

Molecule `N=C(N)Nc1ccc2[nH]c3c(c2c1)C[C@@]1(O)[C@H]2Cc4ccc(O)c5c4[C@@]1(CCN2CC1CC1)[C@H]3O5` has a Ratio Ki (Homo sapiens [1]) of 250 and a Ratio Ki (Homo sapiens [2]) of 120.
